The values that follow are results of earlier work, collected in patent US9420796B2 (priority 2013, dated 2016).

Some results are limits rather than exact numbers.

The data set relates to zebra mussels. The note with it: in vivo; cited from earlier work.

Consider sodium chlorite [NaClO2], for which the Mortality rate is not above 10%.
